Results on two compounds are retold here after PMC11648915, “Identification and development of TRPM4 antagonists to counteract neuronal excitotoxicity” (iScience, 2024).

By UniProt entry, the sequences of proteins in these tests, tags left out.
UniProt Q8TD43, whole entry: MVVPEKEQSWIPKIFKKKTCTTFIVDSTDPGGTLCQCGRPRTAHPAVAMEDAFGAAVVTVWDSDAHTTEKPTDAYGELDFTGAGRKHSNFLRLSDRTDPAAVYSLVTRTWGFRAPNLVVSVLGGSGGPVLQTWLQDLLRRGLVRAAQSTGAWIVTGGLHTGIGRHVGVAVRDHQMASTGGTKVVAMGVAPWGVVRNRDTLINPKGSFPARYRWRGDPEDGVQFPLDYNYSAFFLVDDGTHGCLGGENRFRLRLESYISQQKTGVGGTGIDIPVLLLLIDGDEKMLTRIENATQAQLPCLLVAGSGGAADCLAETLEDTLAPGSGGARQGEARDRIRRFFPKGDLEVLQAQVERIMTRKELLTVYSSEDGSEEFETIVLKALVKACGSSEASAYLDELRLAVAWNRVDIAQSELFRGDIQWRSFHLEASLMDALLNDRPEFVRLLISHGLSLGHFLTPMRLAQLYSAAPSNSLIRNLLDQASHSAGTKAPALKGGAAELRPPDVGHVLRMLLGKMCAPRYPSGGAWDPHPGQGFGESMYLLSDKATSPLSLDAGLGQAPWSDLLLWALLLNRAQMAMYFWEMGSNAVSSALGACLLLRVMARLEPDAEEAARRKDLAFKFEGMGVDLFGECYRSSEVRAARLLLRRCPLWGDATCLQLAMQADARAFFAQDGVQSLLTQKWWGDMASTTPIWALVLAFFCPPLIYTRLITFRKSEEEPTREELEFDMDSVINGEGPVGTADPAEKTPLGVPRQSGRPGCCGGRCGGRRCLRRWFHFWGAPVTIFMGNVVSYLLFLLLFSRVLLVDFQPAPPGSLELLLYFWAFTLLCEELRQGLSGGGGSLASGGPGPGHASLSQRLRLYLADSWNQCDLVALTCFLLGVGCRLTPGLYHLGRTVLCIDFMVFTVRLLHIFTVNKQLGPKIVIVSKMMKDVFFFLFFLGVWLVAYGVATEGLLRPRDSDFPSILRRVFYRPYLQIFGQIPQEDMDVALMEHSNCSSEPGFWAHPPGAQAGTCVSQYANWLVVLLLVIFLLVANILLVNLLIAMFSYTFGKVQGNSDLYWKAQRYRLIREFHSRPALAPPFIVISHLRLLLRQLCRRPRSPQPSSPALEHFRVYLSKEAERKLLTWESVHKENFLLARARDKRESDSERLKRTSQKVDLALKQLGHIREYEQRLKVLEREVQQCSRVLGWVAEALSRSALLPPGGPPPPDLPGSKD
UniProt Q9NZQ8, whole entry: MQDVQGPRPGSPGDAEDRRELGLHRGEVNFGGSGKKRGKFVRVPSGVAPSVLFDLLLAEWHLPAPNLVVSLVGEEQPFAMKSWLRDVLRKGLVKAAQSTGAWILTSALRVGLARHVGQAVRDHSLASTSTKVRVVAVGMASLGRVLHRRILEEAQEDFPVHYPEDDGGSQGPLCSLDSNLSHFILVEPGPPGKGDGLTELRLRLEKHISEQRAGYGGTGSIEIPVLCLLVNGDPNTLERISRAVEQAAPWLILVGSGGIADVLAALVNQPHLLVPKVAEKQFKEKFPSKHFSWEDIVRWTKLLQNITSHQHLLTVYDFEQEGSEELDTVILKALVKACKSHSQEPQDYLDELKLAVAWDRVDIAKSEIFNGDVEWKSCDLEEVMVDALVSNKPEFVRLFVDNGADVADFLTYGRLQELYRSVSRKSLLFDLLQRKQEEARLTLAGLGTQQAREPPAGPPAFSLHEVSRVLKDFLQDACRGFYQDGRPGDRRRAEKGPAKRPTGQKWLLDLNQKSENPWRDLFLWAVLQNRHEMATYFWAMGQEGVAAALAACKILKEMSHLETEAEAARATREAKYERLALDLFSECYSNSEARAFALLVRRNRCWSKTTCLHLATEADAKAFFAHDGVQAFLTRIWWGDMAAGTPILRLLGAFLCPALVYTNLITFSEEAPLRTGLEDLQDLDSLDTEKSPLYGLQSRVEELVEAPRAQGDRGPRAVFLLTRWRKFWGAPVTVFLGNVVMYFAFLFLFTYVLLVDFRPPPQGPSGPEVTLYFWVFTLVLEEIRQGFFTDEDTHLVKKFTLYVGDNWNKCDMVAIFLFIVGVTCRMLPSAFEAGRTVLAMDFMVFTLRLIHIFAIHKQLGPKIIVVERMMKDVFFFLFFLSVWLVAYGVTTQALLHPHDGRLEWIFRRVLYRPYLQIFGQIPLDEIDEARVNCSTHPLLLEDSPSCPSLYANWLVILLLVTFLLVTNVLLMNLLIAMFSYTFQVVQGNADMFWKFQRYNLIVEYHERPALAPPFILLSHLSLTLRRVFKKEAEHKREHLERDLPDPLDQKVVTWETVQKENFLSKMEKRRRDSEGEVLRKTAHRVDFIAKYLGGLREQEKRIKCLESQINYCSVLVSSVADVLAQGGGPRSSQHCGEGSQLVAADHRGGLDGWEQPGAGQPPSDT

Each structure is given as a SMILES string. pIC50: −log10 of the molar value.

The subject of data set [1] is primary mouse neuronal cultures. The data set is described as follows: Glutamate-induced excitotoxicity assay (RealTime-Glo viability). The conditions noted are these: 5 μM.
In another data set the target is human TRPM4 (Homo sapiens, UniProt Q8TD43). The data set can be described thus: QPatch automated patch clamp on TRPM4-expressing HEK293 cells. The data set is classed as cell-based. The conditions noted are these: read-out: TRPM4 IC50, hsTRPM4-expressing HEK293 cells.
The target of a further data set is human TRPM5 (Homo sapiens, UniProt Q9NZQ8). The data set is described as follows: QPatch automated patch clamp on TRPM5-expressing HEK293 cells. Particulars: read-out: TRPM5 IC50, hsTRPM5-expressing HEK293 cells.

On to `Cc1ccc(-c2ccccc2NCC2CCOCC2)s1`, for which the “Compound toxicity in neuronal cultures” value in data set [1] is “observed toxicity”. The pIC50 at human TRPM4 is 5.95; at human TRPM5 it was 5.41.

For `Cc1ccc(-c2ccccc2NCc2ccccn2)s1`, the negative-log IC50 (pIC50) is 5.34 on human TRPM4 and 4.74 at human TRPM5.
